Our source for the Ki values is ChEMBL document CHEMBL3886986, “Thrombin inhibitors” (2016).

What is called Ki is the dissociation constant of the complex between target and ligand, obtained from inhibition or displacement.

The assay is described as follows: In Vitro Assay: Relevant in vitro assays are referenced in Morrissette, et al., Bioorg. […] The assays were carried out at 25° C. in 0.05 M TRIS buffer pH 7.4, 0.15 M NaCl, 0.1% PEG. Trypsin assays also contained 1 mM CaC12.

In turn, `NCc1ccc(Cl)cc1CNC(=O)[C@@H]1CCCN1C(=O)[C@@]1(N)CCc2cccnc21` showed a Ki of 100 nM.
